Each structure is given as a SMILES string.

Sequences of proteins named here, by UniProt entry; tags and fusion partners are left off. A change or cut given only in a name is not applied to a line headed by its entry.
UniProt O43318: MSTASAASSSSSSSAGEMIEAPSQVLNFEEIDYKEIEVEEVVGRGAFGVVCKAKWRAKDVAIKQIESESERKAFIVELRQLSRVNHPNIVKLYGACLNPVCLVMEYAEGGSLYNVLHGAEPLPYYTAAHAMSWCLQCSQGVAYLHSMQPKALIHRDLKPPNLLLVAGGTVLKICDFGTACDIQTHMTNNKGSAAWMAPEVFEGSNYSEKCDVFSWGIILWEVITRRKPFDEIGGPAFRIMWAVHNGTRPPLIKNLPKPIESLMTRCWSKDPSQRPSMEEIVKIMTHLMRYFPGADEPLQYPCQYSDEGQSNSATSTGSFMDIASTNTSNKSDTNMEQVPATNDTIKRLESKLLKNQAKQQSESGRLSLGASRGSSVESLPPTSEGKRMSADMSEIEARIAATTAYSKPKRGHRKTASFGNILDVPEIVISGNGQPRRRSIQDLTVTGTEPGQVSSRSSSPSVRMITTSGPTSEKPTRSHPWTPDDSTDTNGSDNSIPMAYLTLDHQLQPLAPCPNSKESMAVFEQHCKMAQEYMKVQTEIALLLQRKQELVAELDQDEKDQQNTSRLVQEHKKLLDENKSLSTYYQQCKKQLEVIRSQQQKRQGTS
UniProt Q9H2K8: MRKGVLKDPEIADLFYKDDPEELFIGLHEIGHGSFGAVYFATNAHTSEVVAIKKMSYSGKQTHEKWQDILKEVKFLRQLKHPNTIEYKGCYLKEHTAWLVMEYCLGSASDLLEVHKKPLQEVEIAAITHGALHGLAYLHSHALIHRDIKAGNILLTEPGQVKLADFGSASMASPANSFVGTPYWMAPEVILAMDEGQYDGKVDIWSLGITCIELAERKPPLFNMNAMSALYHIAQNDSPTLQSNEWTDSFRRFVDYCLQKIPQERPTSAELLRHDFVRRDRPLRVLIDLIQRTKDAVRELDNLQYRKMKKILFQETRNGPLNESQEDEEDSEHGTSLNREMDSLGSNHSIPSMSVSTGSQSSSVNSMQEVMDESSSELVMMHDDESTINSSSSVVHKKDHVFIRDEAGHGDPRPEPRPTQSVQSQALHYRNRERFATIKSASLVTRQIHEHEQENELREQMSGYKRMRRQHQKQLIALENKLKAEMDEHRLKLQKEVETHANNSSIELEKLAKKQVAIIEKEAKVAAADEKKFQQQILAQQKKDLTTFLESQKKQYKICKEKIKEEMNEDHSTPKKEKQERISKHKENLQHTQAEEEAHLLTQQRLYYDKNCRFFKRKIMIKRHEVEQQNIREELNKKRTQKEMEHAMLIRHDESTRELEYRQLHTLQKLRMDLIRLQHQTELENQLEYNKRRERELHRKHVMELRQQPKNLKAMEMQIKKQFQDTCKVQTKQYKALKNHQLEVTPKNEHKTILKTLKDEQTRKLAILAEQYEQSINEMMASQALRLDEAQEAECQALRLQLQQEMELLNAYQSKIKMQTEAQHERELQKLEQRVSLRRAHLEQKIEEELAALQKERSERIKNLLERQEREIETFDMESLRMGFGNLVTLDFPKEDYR
UniProt Q15750: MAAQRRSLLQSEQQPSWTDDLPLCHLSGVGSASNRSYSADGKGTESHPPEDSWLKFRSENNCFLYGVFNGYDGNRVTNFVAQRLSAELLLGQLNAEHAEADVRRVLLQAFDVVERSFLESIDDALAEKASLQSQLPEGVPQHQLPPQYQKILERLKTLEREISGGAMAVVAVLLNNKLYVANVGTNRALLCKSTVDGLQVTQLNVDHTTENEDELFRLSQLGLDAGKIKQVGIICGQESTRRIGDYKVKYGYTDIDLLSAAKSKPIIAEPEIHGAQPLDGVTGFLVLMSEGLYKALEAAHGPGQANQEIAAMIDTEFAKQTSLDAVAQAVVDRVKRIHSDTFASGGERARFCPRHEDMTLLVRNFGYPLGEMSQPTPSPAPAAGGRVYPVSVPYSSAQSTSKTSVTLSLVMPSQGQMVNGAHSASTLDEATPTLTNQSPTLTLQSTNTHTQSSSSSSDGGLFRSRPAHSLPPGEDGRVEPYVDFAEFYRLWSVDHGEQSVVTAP

For test [1], the target named is MAP3K7 (human) (UniProt O43318). Briefly: KINOMEscan competition binding. As to conditions: compound 10.0 µM.
Test [2] concerns the target TAOK3 (human) (UniProt Q9H2K8). The experiment in a line: KINOMEscan competition binding. As to conditions: compound 10.0 µM.
Test [3] has as its target MAP3K7 TAB1 (human) (UniProt Q15750+O43318). Briefly: radiometric filter-binding kinase assay.

In general, residual activity refers to what remains of the control signal, in per cent. Turning to `CCN1CCN(Cc2ccc(NC(=O)c3ccc(C)c(Oc4ccnc5[nH]ccc45)c3)cc2C(F)(F)F)CC1`, the kinase still bound, per cent of control in test [1] and in test [2] was 0.15% each time. Moreover, the figures for the residual activity in test [3] (compound 0.1 µM), in test [3] (compound 1.0 µM) and in test [3] (compound 10.0 µM) were 11%, 7.47% and 4.09%, respectively.
